Measured values from paper PMC4762448 (Journal of biomolecular screening, 2011).

Sequences of proteins named here, by UniProt entry; tags and fusion partners are left off. Residues count along the entry.
UniProt P17787, 26-502: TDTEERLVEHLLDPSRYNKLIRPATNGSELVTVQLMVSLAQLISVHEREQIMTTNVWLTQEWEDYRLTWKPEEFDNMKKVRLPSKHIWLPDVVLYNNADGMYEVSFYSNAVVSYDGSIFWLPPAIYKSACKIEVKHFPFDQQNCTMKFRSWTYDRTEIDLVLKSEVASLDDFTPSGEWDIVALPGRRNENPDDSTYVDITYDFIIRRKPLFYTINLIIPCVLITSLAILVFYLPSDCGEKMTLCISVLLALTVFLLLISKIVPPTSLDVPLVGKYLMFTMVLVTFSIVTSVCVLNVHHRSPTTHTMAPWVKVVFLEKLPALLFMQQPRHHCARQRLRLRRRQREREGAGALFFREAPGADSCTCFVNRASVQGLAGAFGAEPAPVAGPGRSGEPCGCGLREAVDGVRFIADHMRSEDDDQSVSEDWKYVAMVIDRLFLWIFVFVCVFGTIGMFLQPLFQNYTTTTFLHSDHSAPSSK
UniProt P43681, 29-627: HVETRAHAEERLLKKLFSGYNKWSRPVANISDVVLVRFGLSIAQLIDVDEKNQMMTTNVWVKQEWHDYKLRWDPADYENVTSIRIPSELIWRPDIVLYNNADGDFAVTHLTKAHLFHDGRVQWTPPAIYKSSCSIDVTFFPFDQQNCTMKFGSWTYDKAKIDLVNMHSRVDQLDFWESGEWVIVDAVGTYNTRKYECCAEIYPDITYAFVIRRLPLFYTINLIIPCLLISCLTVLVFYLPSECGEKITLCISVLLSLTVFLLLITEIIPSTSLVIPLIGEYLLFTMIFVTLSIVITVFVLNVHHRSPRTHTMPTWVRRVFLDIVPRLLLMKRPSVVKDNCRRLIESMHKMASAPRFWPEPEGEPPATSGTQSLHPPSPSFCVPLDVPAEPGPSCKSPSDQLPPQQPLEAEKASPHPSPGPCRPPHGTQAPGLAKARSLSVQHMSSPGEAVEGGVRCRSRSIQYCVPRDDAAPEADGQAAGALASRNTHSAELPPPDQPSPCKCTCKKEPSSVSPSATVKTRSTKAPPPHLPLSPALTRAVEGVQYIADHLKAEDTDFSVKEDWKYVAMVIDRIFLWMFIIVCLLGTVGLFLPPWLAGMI

Molecular target: α4β2nAChR (Homo sapiens, UniProt P17787+P43681)
Assay: LGIC-CNiFER membrane potential dye assay in HEK cells, α4β2nAChR
Assay type: cell-based
Conditions: 10 µM

Compound: CO[C@H]1CC=C2CCN3CCC4=C(CC(=O)OC4)[C@]23C1 [DHBE, dihydro-beta-erythroidine]
- percent inhibition, α4β2nAChR: 86 ± 6.4%
